Assays:
rats = experiment: NORT after 21 day administration, discrimination index; format: in vivo, rat; conditions: i.p., 21 days, reversal of (+)MK-801-induced memory impairments
Procedure: (§1) Standard laboratory food (LSM-B) and filtered water as well as environment enrichment were freely available. Animals were randomly divided into treatment groups using a computer-based random order generator. All of the experiments were performed by two observers unaware of the treatment applied between 9:00 and 14:00 on separate groups of animals.
In the NOR test (NORT), rats were randomly divided into experimental groups (n = 8/group). […] All compounds were prepared immediately before administration and were injected intraperitoneally (i.p.) in a constant volume of 2 mL/kg. […] The control group received 1% Tween 80 on the same schedule.
The test was carried out according to the method described by Ennaceur.[46] NORT was conducted in two black-painted wood boxes (60 cm × 60 cm × 60 cm). A video camera mounted above the boxes recorded all experiments. Two days before the test, the rats were placed in the empty experimental boxes for 5 min as a habituation to the test area. On the third day, the test was performed in 2 trials lasting for 3 min at one-hour intervals. […] The exploration time (E) of the objects (such as looking, licking, sniffing, or touching while sniffing) during T2 was measured, and the discrimination index (DI) was calculated according to the following formula: DI = (EB – EA)/(EA + EB). […]

[1] = low concentrations (WA-22 up to 0.15 mmol/L; PPK-32 at the lowest concentrations)
[2] = pharmacokinetics in serum after single i.p. administration; format: in vivo, rat; conditions: 1 mg/kg i.p.
Procedure: as §1
Rats were injected with the investigated compounds once (in pharmacokinetic studies) and for 21 days (in behavioral studies), and afterward, behavioral tests were conducted and tissue collection was done, as required. For pharmacokinetic studies, animals were fasted prior to dosing by withholding food but not water overnight. After dosing, the food was withheld for an additional 8 h. […]
The serum concentration–time data were analyzed by a noncompartmental method using the WinNonlin 8.2 nonlinear least-squares regression program (Pharsight Corporation, a Certara Company, Princeton, NJ, USA) to obtain pharmacokinetic parameters. […] The area under the serum concentration–time curve from time zero to time t (AUC0–t), where t is the time of the last measurable sample, was calculated according to the linear trapezoidal rule. […] The clearance (CL/F) was calculated as D/AUC0–∞, and the volume of distribution based on the terminal phase (Vz/F) was estimated as D/(λz·AUC0–∞), where F is the bioavailability of intraperitoneal administration.

[3] = set-up: method as in PMID 38190615, PMID 35228010; conditions: caffeine as permeable reference; cited from earlier work
[4] = kidneys, 1 mg/kg i.p.; cited from earlier work

Compound	minimal active chronic dose (rats) [mg/kg/day]	antioxidant activity compared to vitamin C [1]	Vz/F relative to average volume of total body water in rats (0.67 L/kg) [2] [fold]	relative PeC (Pe/Pe of caffeine in the assay) [3]	t1/2λz [4] [min]
CN1CCN(c2nc(N)nc(C(C)(C)Sc3ccc4ccccc4c3)n2)CC1 [WA-22, 4-(4-methylpiperazin-1-yl)-6-(2-(naphthalen-2-ylthio)propan-2-yl)-1,3,5-triazin-2-amine]	1	surpasses vitamin C			
CN1CCN(c2nc(N)nc(C(C)(C)[Se]c3ccc4ccccc4c3)n2)CC1 [PPK-32]		weaker action than that of its S-analogue but distinctly stronger than vitamin C	~82	2.88	44

— paper PMC11926880, “Procognitive Potential of Neuroprotective Triazine 5-HT6 Receptor Antagonists Tested on Chronic Activity In Vivo in Rats: Computer-Aided Insight into the Role of Chalcogen-Differences on the Pharmacological Profile” (ACS Chemical Neuroscience, 2025)
